Test results published in PubChem BioAssay AID2227 (Johns Hopkins Ion Channel Center, 2009).
Only a part is listed here, and it is no random draw. Some tests of the compounds listed are not included; inactive here does not mean inactive elsewhere. Calls of active or inactive are those of the source.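 Rule for the calls: active = B-score of calcium response area above 5 SD of library B-scores, with initial fluorescence ratio within 5 SD of library; inactive = the rest.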

Chains of the proteins cited; added tags and fusions are not shown.
UniProt Q9QUQ5, whole entry: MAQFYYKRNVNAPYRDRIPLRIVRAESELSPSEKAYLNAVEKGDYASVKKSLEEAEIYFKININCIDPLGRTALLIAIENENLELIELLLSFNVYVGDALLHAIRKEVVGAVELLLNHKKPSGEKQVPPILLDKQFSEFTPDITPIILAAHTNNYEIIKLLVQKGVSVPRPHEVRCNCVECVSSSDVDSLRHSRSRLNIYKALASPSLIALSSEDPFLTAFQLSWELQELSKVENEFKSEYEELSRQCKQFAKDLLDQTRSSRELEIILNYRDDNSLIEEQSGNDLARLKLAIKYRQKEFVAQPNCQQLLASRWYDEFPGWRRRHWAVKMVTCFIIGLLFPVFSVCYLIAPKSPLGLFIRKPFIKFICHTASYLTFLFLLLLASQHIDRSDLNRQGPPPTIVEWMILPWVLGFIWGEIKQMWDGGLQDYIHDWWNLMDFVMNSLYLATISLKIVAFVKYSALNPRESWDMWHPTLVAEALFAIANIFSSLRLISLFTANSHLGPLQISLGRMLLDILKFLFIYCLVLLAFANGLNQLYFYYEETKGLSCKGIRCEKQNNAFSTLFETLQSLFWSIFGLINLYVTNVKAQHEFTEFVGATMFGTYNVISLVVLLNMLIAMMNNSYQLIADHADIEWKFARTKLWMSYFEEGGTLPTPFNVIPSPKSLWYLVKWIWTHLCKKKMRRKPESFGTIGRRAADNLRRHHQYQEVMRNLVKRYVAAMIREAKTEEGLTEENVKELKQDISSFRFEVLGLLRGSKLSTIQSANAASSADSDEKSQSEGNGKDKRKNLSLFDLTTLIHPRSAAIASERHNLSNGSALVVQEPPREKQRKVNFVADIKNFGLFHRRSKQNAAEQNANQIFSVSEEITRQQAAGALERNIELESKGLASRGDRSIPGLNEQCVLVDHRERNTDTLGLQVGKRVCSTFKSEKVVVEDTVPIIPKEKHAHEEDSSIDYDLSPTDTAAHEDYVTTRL

Molecular target: Short transient receptor potential channel 4 (Mus musculus) (UniProt Q9QUQ5)
Assay: TRPC4 channel potentiators under submaximal DAMGO – cell-based, mouse TRPC4beta, HEK293 mu-opioid, Fluo-4 calcium, primary screen (AID 2227)
Conditions: DAMGO EC20, Fluo-4 Ca2+ flux, at 10 µM

| SMILES | outcome |
| --- | --- |
| CN1[C@@H]2CC[C@H]1CC(OC(=O)C(O)(c1ccccc1)c1ccccc1)C2 (some centres undefined) | inactive |
| O=C(NCC1(N2CCCCC2)CCCCC1)c1cc([N+](=O)[O-])ccc1Cl | inactive |
| Cc1ccc(C(=O)NCC2(N3CCCCC3)CCCCC2)cc1 | inactive |
| COc1cc(SC)ccc1C(=O)NCC1(N(C)C)CCCCC1 | inactive |
| CCN(CC)CC(C)C(C)OC(=O)C(O)(c1ccccc1)c1ccccc1 (centres undefined) | inactive |
| CC(C)N1C(=O)CC2(CCN(CCOC(=O)C(O)(c3ccccc3)c3ccccc3)CC2)C1=O | inactive |
| CN(C)C1CCCC1OC(=O)C(O)(c1ccccc1)c1ccccc1 (centres undefined) | inactive |
| CN(C)c1ccc(C(=O)NCC2(N(C)C)CCCCC2)cc1 | inactive |
| Cc1ccccc1C(=O)NCC1(N2CCCCC2)CCCCC1 | inactive |
| COc1ccc(C(=O)NCC2(N(C)C)CCCCC2)cc1 | inactive |
| O=C(NCC1(N2CCCCC2)CCCCC1)c1cccc(Br)c1 | inactive |
| Cc1cc(C(=O)NCC2(N3CCCCC3)CCCCC2)ccc1[N+](=O)[O-] | inactive |
| CCN1CCCC(OC(=O)C2(O)c3ccccc3C=Cc3ccccc32)C1 (centres undefined) | inactive |
| O=C(NCC1(N2CCCCC2)CCCCC1)c1cc(F)c(F)cc1Cl | inactive |
| C=CCN1CCN(CCOC(=O)C(O)(c2ccccc2)c2ccccc2)CC1 | inactive |
| COc1cc(C(=O)NCC2(N(C)C)CCCCC2)c([N+](=O)[O-])cc1OC | inactive |
| CN(C)C1(CNC(=O)c2ccc(Br)cc2)CCCCC1 | inactive |
| O=C(NCC1(N2CCCCC2)CCCCC1)c1cccc(Cl)c1 | inactive |
| COc1ccc(Cl)cc1C(=O)NCC1(N(C)C)CCCCC1 | inactive |
| COc1cccc(C(=O)NCC2(N3CCCCC3)CCCCC2)c1 | inactive |
| O=C(OC1CN2CCC1CC2)C(CO)(c1ccccc1)c1ccccc1 (centres undefined) | inactive |
| CC(C)Oc1ccc(C(=O)NCC2(N(C)C)CCCCC2)cc1 | inactive |
| CN(C)c1cccc(C(=O)NCC2(N(C)C)CCCCC2)c1 | inactive |
| COc1ccc(Br)c(C(=O)NCC2(N3CCCCC3)CCCCC2)c1 | inactive |
